# Data published in publication PMC7659976, “Benzobicyclo[3.2.1]octene Derivatives as a New Class of Cholinesterase Inhibitors” (Molecules, 2020).
# Protein sequences, listed by entry. Tags and fused reporters are not part of them. Residues count along the entry.
# UniProt P06276, 29-602 limits assumed: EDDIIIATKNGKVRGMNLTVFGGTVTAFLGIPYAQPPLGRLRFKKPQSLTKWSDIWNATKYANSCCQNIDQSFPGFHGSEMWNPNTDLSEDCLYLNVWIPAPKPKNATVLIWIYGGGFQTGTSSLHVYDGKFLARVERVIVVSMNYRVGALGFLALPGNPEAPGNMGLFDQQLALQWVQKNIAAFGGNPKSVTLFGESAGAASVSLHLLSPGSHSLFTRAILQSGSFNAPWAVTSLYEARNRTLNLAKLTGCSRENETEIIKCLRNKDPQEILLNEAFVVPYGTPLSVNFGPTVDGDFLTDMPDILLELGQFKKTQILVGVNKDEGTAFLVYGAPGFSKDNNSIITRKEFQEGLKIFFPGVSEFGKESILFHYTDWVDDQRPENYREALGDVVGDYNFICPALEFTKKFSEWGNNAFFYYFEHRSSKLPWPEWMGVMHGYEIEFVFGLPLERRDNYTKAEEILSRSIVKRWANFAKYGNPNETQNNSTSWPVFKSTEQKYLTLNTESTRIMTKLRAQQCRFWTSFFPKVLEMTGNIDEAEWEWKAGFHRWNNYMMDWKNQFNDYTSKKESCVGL
# pIC50: −log10 of the molar value.
# Target: BChE derived from purified human plasma (Homo sapiens, UniProt P06276)
# Test: Reversible inhibition of human BChE (Ellman method)
# Format: biochemical
# Conditions: read-out: Inhibition of BChE, IC50 ± SEM; Table 2, oximes and oxime ethers; 0.1 M phosphate buffer pH 7.4, 25 °C, ATCh substrate
structure (smiles),measurement,value
O=C(/C=N/O)/C=C1\CCC2CC1c1ccccc12 (stereo not shown),pIC50,3.46
O=C1CC2CC(/C1=C/C/C=N/O)c1ccccc12 (stereo not shown),pIC50,< 3.30
O/N=C/c1cc2c(o1)CC1CC2c2ccccc21 (stereo not shown),pIC50,4.60
O/N=C/C(O)=C/C1C=CC2CC1c1ccccc12 (stereo not shown),pIC50,3.35
